Tests used:
143B cells = test: Wound healing scratch assay, 143B; assay type: cell-based, human; settings: 5 μM, 10 hours
MG63 cells = test: Wound healing scratch assay, MG63; assay type: cell-based, human; settings: 5 μM, 10 hours
HOS cells = test: Wound healing scratch assay, HOS; assay type: cell-based, human; settings: 5 μM, 10 hours

Row | Structure (SMILES) | wound healing: ratio of wound remaining in treatment to wound remaining in control (143B cells) | total cell viability (143B metastatic OS cells) | wound healing: ratio of wound remaining in treatment to wound remaining in control (MG63 cells) | wound healing: ratio of wound remaining in treatment to wound remaining in control (HOS cells)
1 | CC/C=C\C/C=C\C/C=C\CC1OC1C/C=C\C/C=C\CCC(=O)NCCO (stereo not shown) [10,11-EDP-EA, (4Z,7Z)-N-(2-hydroxyethyl)-9-(3-((2Z,5Z,8Z)-undeca-2,5,8-trien-1-yl)oxiran-2-yl)nona-4,7-dienamide] | inhibits wound closure significantly | reduced total cell viability | twice as much as the control | 
2 | CCC1OC1C/C=C\C/C=C\C/C=C\C/C=C\C/C=C\CCC(=O)NCCO (stereo not shown) [19,20-EDP-EA] |  | less effective |  | 
3 | CC/C=C\C/C=C\CC1OC1C/C=C\C/C=C\C/C=C\CCC(=O)NCCO (stereo not shown) [13,14-EDP-EA] | do not inhibit wound healing | reduced total cell viability | restricted at 10h but not at 6h | not significant
4 | CC/C=C\CC1OC1C/C=C\C/C=C\C/C=C\C/C=C\CCC(=O)NCCO (stereo not shown) [16,17-EDP-EA] |  | less effective |  | 
5 | CC/C=C\C/C=C\C/C=C\C/C=C\CC1OC1C/C=C\CCC(=O)NCCO (stereo not shown) [7,8-EDP-EA] | do not inhibit wound healing | reduced total cell viability | a similar trend was seen | not significant

— PMC7202735 (Journal of medicinal chemistry, 2018)
